Measured values: ChEMBL document CHEMBL1148673, “Peptidomimetic C5a receptor antagonists with hydrophobic substitutions at the C-terminus: increased receptor specificity and in vivo activity” (Bioorg Med Chem Lett, 2006)

Species: Homo sapiens
Assay: Stability in human plasma after 1 hr at 37 degC

CC(C)CC[C@@H](NC(=O)[C@@H]1CCCN1C(=O)[C@H](CCCN)NC(=O)[C@H](Cc1ccccc1)NC(=O)[C@@H]1CC(=O)NC(=O)N1)C(=O)N[C@@H](Cc1ccc(F)cc1)C(=O)N[C@@H](Cc1ccccc1)C(N)=O
remaining at 1 h: 100%
